Values quoted from earlier work as cited in patent US11000710B2, “Composition and method for the generation of chlorine dioxide from the oxidative consumption of biomolecules” (priority 2009, dated 2021).

Settings: Lynch et al. 1997; cited from earlier work

In the case of chlorite [ClO2^−/HClO2], the pKa is given as 2.31.
